Values quoted from earlier work as cited in patent US20120178782A1, “COMPOSITIONS AND METHODS FOR TREATING PROLIFERATIVE DISEASES” (priority 2009, published 2012).

Target: T1, lypoxygenase-5 (Rattus norvegicus, UniProt P12527)
T1 construct: in polymorphonuclear leukocytes of rat; endogenous in cells; host or cells: rat polymorphonuclear leukocytes
T1 sequence (P12527 1-673): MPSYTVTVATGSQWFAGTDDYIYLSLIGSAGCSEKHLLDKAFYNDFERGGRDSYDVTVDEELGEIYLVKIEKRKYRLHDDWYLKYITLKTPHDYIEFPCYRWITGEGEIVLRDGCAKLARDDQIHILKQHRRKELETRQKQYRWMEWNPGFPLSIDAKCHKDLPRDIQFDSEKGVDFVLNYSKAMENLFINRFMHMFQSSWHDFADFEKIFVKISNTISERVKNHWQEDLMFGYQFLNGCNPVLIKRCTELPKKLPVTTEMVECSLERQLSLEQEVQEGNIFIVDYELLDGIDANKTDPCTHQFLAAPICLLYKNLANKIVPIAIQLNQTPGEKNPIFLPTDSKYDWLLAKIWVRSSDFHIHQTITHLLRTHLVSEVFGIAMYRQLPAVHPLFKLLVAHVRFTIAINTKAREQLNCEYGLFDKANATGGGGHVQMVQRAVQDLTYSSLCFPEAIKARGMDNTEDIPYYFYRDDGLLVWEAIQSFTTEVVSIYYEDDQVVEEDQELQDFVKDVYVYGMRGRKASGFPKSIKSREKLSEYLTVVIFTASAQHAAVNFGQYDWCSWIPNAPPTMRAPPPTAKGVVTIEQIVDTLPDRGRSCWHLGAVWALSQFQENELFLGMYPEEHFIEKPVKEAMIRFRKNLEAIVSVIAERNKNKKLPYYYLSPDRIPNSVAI
Settings: polymorphonuclear leukocytes of rat; cited from earlier work

In the case of `CC(c1cc2ccccc2s1)N(O)C(N)=O` (stereo not shown) [Zileuton], the IC50 is given as 300 nM.
